Test [1] has as its target Beta-lactamase (Enterobacter cloacae) (UniProt P05364). As to conditions: Serratia marcescens.
Test [2] has the same target. As to conditions: Pseudomonas aeruginosa.
For test [3] the target is unchanged. As to conditions: Escherichia coli.

Amino acid sequences for entries named in this document (tags omitted).
UniProt P05364, whole entry, looked up: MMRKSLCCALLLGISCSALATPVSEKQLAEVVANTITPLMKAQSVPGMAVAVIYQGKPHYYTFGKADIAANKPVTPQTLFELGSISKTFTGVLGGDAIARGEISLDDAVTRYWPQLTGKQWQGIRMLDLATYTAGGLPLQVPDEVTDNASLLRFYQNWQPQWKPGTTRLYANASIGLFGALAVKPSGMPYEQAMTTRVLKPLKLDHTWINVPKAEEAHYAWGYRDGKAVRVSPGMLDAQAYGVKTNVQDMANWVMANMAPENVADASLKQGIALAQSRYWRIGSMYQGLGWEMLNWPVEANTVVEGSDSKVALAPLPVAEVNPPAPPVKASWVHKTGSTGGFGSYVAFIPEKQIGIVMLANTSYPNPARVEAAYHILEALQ

≈ marks a conversion by molar mass, not a printed value. Where only a bound is given, the exact number is not on record here.

In the case of `CCN1CCN(C(=O)N[C@@H](C(=O)N[C@@H]2C(=O)N3[C@@H]2SC(C)(C)[C@@H]3C(=O)O)c2ccccc2)C(=O)C1=O`, the values for the MIC in test [1], in test [2] and in test [3] were 32 µg/mL (≈ 61.8 µM), > 64 µg/mL and > 64 µg/mL, respectively.
Consider `CC1(C)[C@H](C(=O)O)N2C(=O)[C@]3(C[C@@H]3OC3CCCCC3)[C@H]2S1(=O)=O.CCN1CCN(C(=O)N[C@@H](C(=O)N[C@@H]2C(=O)N3[C@@H]2SC(C)(C)[C@@H]3C(=O)O)c2ccccc2)C(=O)C1=O`, for which the MIC in test [1] and in test [2] was 32 µg/mL throughout.

For the origin of these results see ChEMBL document CHEMBL1145799, “Spirocyclopropyl beta-lactams as mechanism-based inhibitors of serine beta-lactamases. Synthesis by rhodium-catalyzed cyclopropanation of 6-diazopenicillanate sulfone” (J Med Chem, 2003).
